According to ChEMBL document CHEMBL5223164 (ACS Med Chem Lett, 2023):

How the values were obtained:
[1] = species: Rattus norvegicus; settings: Sprague-Dawley, dose 10.0 mg/kg/day, route po, time 2.0 day
[2] = species: Canis familiaris; settings: Canis lupus familiaris; Beagle; dose 150.0 mg/kg/day, route po, time 1.0 day
[3] = species: Rattus norvegicus; settings: Sprague-Dawley, dose 3-30 mg/kg, route po, time 1.0 hrs
[4] = species: Rattus norvegicus; settings: Sprague-Dawley, dose 30.0 mg/kg/day, route po, time 14.0 day
[5] = species: Rattus norvegicus; settings: Sprague-Dawley, dose 3-30 mg/kg, route po, time 3.0 hrs
[6] = species: Rattus norvegicus; settings: Sprague-Dawley, dose 10.0 mg/kg/day, route po, time 10.0 day
[7] = species: Rattus norvegicus; settings: Sprague-Dawley, dose 10.0 mg/kg/day, route po, time 14.0 day
[8] = species: Canis familiaris; settings: Canis lupus familiaris; Beagle; dose 6-150 mg/kg/day, route po, time 7.0 day

Measured: inhibition

N#Cc1cccc(-c2ccc3ncc(-c4cc(F)cc(F)c4)c(N4CCC(N)CC4)c3c2)c1O [PALTUSOTINE]
active: [1] | [2] | [3] Dose-Dependent Effect | [4] | [5] Dose-Dependent Effect | [6] | [7] | [8]

Calls of active or inactive are those of the source.
